This series relates to Coronary artery smooth muscle cells. As to conditions: SRB assay for 24 hours; data not shown. The procedure:
Coronary artery smooth muscle cells pooled from human donors (n = 3) were commercially acquired and cultured according to the recommendations of the manufacturer. They were stimulated with IL-1β, TNF-α and IFN-γ to emulate conditions of vascular inflammation. The […] were cultured in 96 well-plates until confluence. Details are described in Kunkel et al. (2004) FASEB J 18: 1279-1281). […] The substance was added at the indicated concentration 1 hour before stimulation and remained in culture for 48 hours. Each plate contained positive and negative controls (non-stimulated cells) as well as vehicle controls (buffer solution). Direct ELISA (enzyme-linked immunosorbent assay) was used to measure thrombomodulin levels. Soluble factors from supernatants were quantified using capture ELISA.
On the technique in general: In SRB staining, fixed cells bind dye roughly in proportion to their protein.

Turning to `Nc1cccc2c(=O)[nH][nH]c(=O)c12.[Na]` [5-amino-2,3-dihydro-1,4-phthalazinedione sodium salt], the overt cytotoxic effects entry is “no cytotoxic effects were observed”.

The record behind these values is EP4701641B1, “5-AMINO-2,3-DIHYDRO-1,4-PHTHAL[…] THE PROPHYLAXIS AND TREATMENT OF […]” (MetrioPharm AG, priority 2023, dated 2025).
